From PubChem BioAssay AID651661 (Broad Institute, 2012) come the findings set out here.

Only a part is listed here, and it is no random draw. Active and inactive are the calls of the source.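 The calls were made as follows: active = mean inhibition of at least 50% after viability correction, with every replicate also passing that limit; inconclusive = mean reaches 50% but only one of two replicates passes; inactive = the rest.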

This assay in a line: blockers of EWS/Fli transcriptional output – A673 cells, NR0B1 luciferase, luminescence, MLPCN library, primary screen (AID 651661).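 Also: firefly luciferase signal divided by Alamar Blue viability fluorescence both relative to DMSO.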 The note with it: A673 NR0B1-luciferase reporter, viability-normalised; at 12.6 µM; hits give high values. On the technique in general: In a reporter assay the amount or activity of a reporter protein is the signal.
As for `Cc1ccc(S(=O)(=O)N(CCCN)CCCc2c(C)nc(N)[nH]c2=O)cc1`, the inhibition was inactive: 0.215%.

`NS(=O)(=O)c1cccc(NC(=O)COC(=O)C(O)(c2ccccc2)c2ccccc2)c1`: the inhibition was inactive: 1.15%. `O=[As](O)(c1cccs1)c1cccs1`: the inhibition was inactive: -6.13%.

For the molecule `Nc1cccc([As](=O)(O)c2ccccc2)c1`, the inhibition is inactive: -7.14%.

`CC1CCC(C(C)C)C(OP(=O)(Nc2ccccn2)c2ccccc2)C1` (stereo not drawn): the inhibition is inactive: 9.5%. Next, `Cc1ccc(C(=O)OC2CN3CCC2CC3)cc1` (stereo not drawn): inactive: -11.1%. Next, `O=C(/C=C/c1ccccc1)OC1CN2CCC1CC2` (stereo not drawn): inactive: -5.35%. Next, `CCCC1OP(=O)(Nc2ccccc2)OCC1CC` (stereo not drawn): inactive: -4.14%. Turning to `CN(C)C1(CNC(=O)c2ccc(S(C)(=O)=O)cc2)CCCCC1`, the inhibition is inactive: 7.65%.

For `COc1ccccc1CNC(=O)COC(=O)C(O)(c1ccccc1)c1ccccc1`, the inhibition is inactive: 1.93%. In the case of `CC(C)/C=N\N=C(\N)N[N+](=O)[O-]`, the inhibition is inactive: -4.48%. `CN(C(=O)Cc1ccc(Cl)c(Cl)c1)[C@@H]1CCCC[C@H]1N1CCCC1`: the inhibition is inactive: -6.01%.

On to `CN(C(=O)Cc1ccc(Cl)c(Cl)c1)C1CCCC[C@@H]1N1CCCC1` (stereo partly drawn), for which the inhibition was inactive: 3.7%. For the molecule `CN(CCCl)Cc1cc(Cl)c(NC2=NCCN2)c(Cl)c1`, the inhibition was inactive: -15.7%. Next, `CCOP(=O)(Nc1ccc(C)cn1)OCC`: inactive: -1.22%; `CCC1=CC2Cc3nc4ccc(Cl)cc4c(N)c3C(C1)C2` (stereo not drawn): inactive: 21.2%; `CCOP(=O)(NC(=NC(C)c1ccccc1)NC(C)c1ccccc1)OCC` (stereo not drawn): inactive: -7.23%. Take `O=P1(N(CCCl)CCCl)NCCC(C(F)(F)F)O1` (stereo not drawn): the inhibition was inactive: -12.7%. The same measure for `CC(C)(C)C(=O)NC(Sc1ncccn1)C(Cl)(Cl)Cl` (stereo not drawn): inactive: 18.8%.

For `CCCOP(=S)(Nc1nc(N)cc(=O)[nH]1)OCCC`, the inhibition was inactive: 12.6%. Next, `Cc1ccc(NCCc2c([N+](=O)[O-])cc([N+](=O)[O-])cc2[N+](=O)[O-])cc1`: inactive: -2.41%. For the molecule `Nc1cccc2c([As](=O)(O)O)cccc12`, the inhibition was inactive: 15.6%. For the molecule `CCOP(=O)(Nc1cccc2ccccc12)OCC`, the inhibition is inactive: 4.44%. Consider `COc1cc(C(=O)NCC2(N3CCOCC3)CCCCC2)cc(Cl)c1OC(C)C`, for which the inhibition is inactive: -9.19%. Next, `O=[As](O)(O)c1cccnc1`: inactive: -2.64%. With `O=C(OC1CN2CCC1CC2)c1ccc(Cl)cc1` (stereo not drawn), the inhibition is inactive: -4.42%. `O=[As](O)(c1cccc(O)c1)c1cccc(O)c1`: the inhibition is inactive: 3.42%.

Take `NC(=O)Nc1ccc([As](=O)(O)O)cc1`: the inhibition is inactive: 4.23%. The same measure for `CN(C)C(=O)c1cc([N+](=O)[O-])cc2c1-c1c(cc([N+](=O)[O-])cc1[N+](=O)[O-])C2=O`: inactive: 32.1%; for `CN(C(=O)Cc1ccc(Cl)c(Cl)c1)[C@H]1CC[C@@]2(CCCO2)C[C@@H]1N1CCCC1`: inactive: -5.72%. `N#CCCN(C(=O)COC(=O)C(O)(c1ccccc1)c1ccccc1)c1ccc(F)cc1`: the inhibition was inactive: 2.94%. The same measure for `CN(C(=O)Cc1ccccc1)[C@@H]1CC[C@]2(CCCO2)C[C@H]1N1CCCC1`: inactive: -0.0785%; for `CCOP1(=S)c2c(C)nn(CCC#N)c2N=C(c2ccc(F)cc2)N1C` (stereo not drawn): inactive: 10.8%. Next, `CCOP1(=S)c2c(C)nn(CCC#N)c2N=C(c2ccccc2F)N1C` (stereo not drawn): inactive: -1.27%; `O=P(Nc1nccs1)(Oc1ccccc1)Oc1ccccc1`: inactive: 2.93%. The same measure for `Nc1ccccc1[As](=O)(O)c1ccccc1`: inactive: 2.01%; for `O=C(O)COc1ccc([As](=O)(O)O)cc1[N+](=O)[O-]`: inactive: 2.11%. For the molecule `CC(C)c1ccc(OP(=O)(Nc2ccccn2)Oc2ccccc2F)cc1` (stereo not drawn), the inhibition was inactive: 1.65%. As for `COC(=O)C1(C)COP(=O)(N2CCCCCC2)OC1` (stereo not drawn), the inhibition was inactive: -1.91%. Next, `O=C(OC1CN2CCC1CC2)c1cccc2[nH]cnc12` (stereo not drawn): inactive: -6.67%; `CC(C)NC(=O)NP(=O)(Oc1ccccc1)Oc1ccccc1`: inactive: -0.1%. As for `O=[As](O)(c1ccc(O)cc1)c1ccccc1O`, the inhibition is inactive: 10.3%.

As to `C[As](=O)(O)c1cccc(C(=O)O)c1`, the inhibition was inactive: -4.06%. For `COc1cc(C(=O)NCC2(N3CCOCC3)CCCCC2)ccc1OCC(C)C`, the inhibition was inactive: -8.43%.

As to `O=[N+]([O-])c1ccc(-c2cc([N+](=O)[O-])c(O)c([N+](=O)[O-])c2)cc1`, the inhibition is inactive: -8.85%.

Take `Cc1ccc2nc3c(c(C)c2c1)CC(C(Cl)Cl)S3` (stereo not drawn): the inhibition was inactive: -37%. The same measure for `[N-]=[N+]=NC1CCCCC1NC(=O)c1cc([N+](=O)[O-])cc([N+](=O)[O-])c1` (stereo not drawn): inactive: -1.43%. In the case of `Cc1ccc(OP(=O)(Nc2ccc([N+](=O)[O-])cn2)Oc2ccc(C)cc2)cc1`, the inhibition is inactive: 7.11%. Next, `COc1ccc(N/C(=N/P(=O)(N2CCOCC2)N2CCOCC2)N2CCOCC2)cc1`: inactive: -7.75%. For the molecule `O=[N+]([O-])c1cc(Oc2ccc([N+](=O)[O-])cc2C(F)(F)F)cc([N+](=O)[O-])c1`, the inhibition was inactive: -6.73%. Regarding `Cc1cc(=O)[nH]c(N[N+](=O)[O-])n1`, the inhibition was inactive: 5.38%. As for `Cc1c2c(nc3ccccc13)SC(C(Cl)Cl)C2` (stereo not drawn), the inhibition was inactive: -12.1%. Next, `COc1ccc2nc(NP(=O)(c3ccccc3)c3ccccc3)sc2c1`: inactive: 2.76%; `COc1cc(I)ccc1[As](=O)(O)O`: inactive: -4.5%.

As for `COc1ccc(CN2/C(=N\P(=O)(Oc3ccccc3)Oc3ccccc3)Cc3ccccc3C2C2CC2)cc1` (stereo not drawn), the inhibition was inactive: 30.9%. As to `O=P1(N(CCCl)CCCl)OCCCN1CCCl` (stereo not drawn), the inhibition was inactive: -12.7%. The same measure for `O=P1(N(CCCl)CCCl)Nc2ccccc2N1`: inactive: -45.6%; for `CCOC(=O)c1ccc(NC(=O)C(C)(CCl)SC)cc1` (stereo not drawn): inactive: -37.6%; for `O=C(OC1CN2CCC1CC2)c1cccc([N+](=O)[O-])c1` (stereo not drawn): inactive: 7.72%. Take `COP1(=S)c2c(C)nn(CCC#N)c2N=C(c2ccc(F)cc2)N1C` (stereo not drawn): the inhibition is inactive: 2.88%.

Turning to `COC(=O)C1(C)COP(=O)(N2CCCC2)OC1` (stereo not drawn), the inhibition was inactive: 1.82%. Turning to `O=C(Nc1ccncc1[N+](=O)[O-])c1ccc([N+](=O)[O-])cc1[N+](=O)[O-]`, the inhibition is inactive: 1.87%. Next, `O=C(O)C(=O)c1ccc(N(CCCl)CCCl)cc1`: inactive: -2.17%; `CCOC(=O)Nc1cccc([As](=O)(O)O)c1`: inactive: -11%; `O=[N+]([O-])c1ccc(Nc2ccc(Oc3ccc([N+](=O)[O-])cc3[N+](=O)[O-])cc2)c([N+](=O)[O-])c1`: inactive: -12.1%.

Take `O=P(Nc1ccccn1)(c1cccc2ccccc12)c1cccc2ccccc12`: the inhibition was inactive: 2.15%.

In the case of `Cc1cc(SC(NC=O)C(Cl)(Cl)Cl)ncn1` (stereo not drawn), the inhibition is inactive: 7.22%.

`CC1CCNP(=O)(N(CCCl)CCCl)O1` (stereo not drawn): the inhibition was inactive: -4.69%.

On to `CCOC(=O)Nc1ccc([As](=O)(O)O)c(O)c1`, for which the inhibition was inactive: 0.65%. Consider `O=C(O)C(O)c1ccc(N(CCCl)CCCl)cc1` (stereo not drawn), for which the inhibition is inactive: -0.0725%. The same measure for `CCCCOc1ccc(C(=O)NCC2(N3CCCCC3)CCCCC2)cc1OC`: inactive: -10.5%; for `COP(=O)(OC)N1CC1c1ccccc1` (stereo not drawn): inactive: 3.82%. In the case of `CC(C)(C)C(=O)NC(Sc1ccncn1)C(Cl)(Cl)Cl` (stereo not drawn), the inhibition is inactive: -0.299%.

In the case of `O=[N+]([O-])c1ncn(CCn2ncnc2[N+](=O)[O-])n1`, the inhibition was inactive: -2.52%. For `O=[N+]([O-])c1cccc(NC2=NCC(CBr)S2)c1` (stereo not drawn), the inhibition was inactive: 4.3%. Next, `COC(=O)C1(C)COP(=O)(Nc2ccccc2)OC1` (stereo not drawn): inactive: -5.65%; `O=C(O)CNc1ccc([As](=O)(O)O)cc1`: inactive: 6.97%; `O=P1(N(CCCl)CCCl)OCCCS1` (stereo not drawn): inactive: 1.84%. The same measure for `O=C(Nc1cc([As](=O)(O)O)ccc1O)c1ccccc1`: inactive: -3.21%; for `Nc1ccc([As](=O)(O)c2ccc(N)cc2)cc1`: inactive: -8.88%. The same measure for `C[N+]1=C2C=CC=CC=C2SC12C([N+](=O)[O-])=CC([N+](=O)[O-])=C[C-]2[N+](=O)[O-]` (stereo not drawn): inactive: 32%.

Take `CCN(/C(=N/P(=O)(N1CCOCC1)N1CCOCC1)N1CCOCC1)c1ccc(OC)cc1`: the inhibition was inactive: 1.88%. Next, `CC(C)=N/N=C(\N)N[N+](=O)[O-]`: inactive: 4.87%. Take `CC(C)c1nc(Nc2ccccc2)n(P(=O)(N(C)C)N(C)C)n1`: the inhibition is inactive: 4.1%. The same measure for `c1cc(-c2nn[nH]n2)ccc1-c1nn[nH]n1`: inactive: -2.05%. As to `COc1ccc(C2=NCC(CBr)S2)cc1` (stereo not drawn), the inhibition was inactive: -8.54%.

For `Cc1ccc(NP(=O)(Oc2ccccc2)Oc2ccccc2)nc1`, the inhibition is inactive: -1.06%.

Take `O=[N+]([O-])c1cc([N+](=O)[O-])c(CCNc2ccccc2)c([N+](=O)[O-])c1`: the inhibition was inactive: 26.6%. `Nc1cc(N)c2nonc2c1[N+](=O)[O-]`: the inhibition was inactive: 9.5%. The same measure for `O=C(NC(Sc1ccncn1)C(Cl)(Cl)Cl)c1ccccc1` (stereo not drawn): inactive: 6.46%; for `NC(=O)c1cc([N+](=O)[O-])cc([N+](=O)[O-])c1N`: inactive: 9.98%; for `CN(C(=O)Cc1ccc(Cl)c(Cl)c1)[C@H]1CCCC[C@H]1N1CCCC1`: inactive: 9.17%. Next, `Cc1ccc(N/C(=N/P(=O)(N2CCOCC2)N2CCOCC2)N2CCOCC2)cc1`: inactive: -1.95%.

Regarding `COc1ccccc1OP(=O)(Nc1ccc(C)cn1)Oc1ccccc1OC`, the inhibition was inactive: 9.14%. With `Cc1ccc(OP(=O)(Nc2nccs2)Oc2ccc(C)cc2)cc1`, the inhibition is inactive: 9.87%.

Take `Clc1ccc(Cl)c(NC2=NCC(CBr)S2)c1` (stereo not drawn): the inhibition was inactive: -1.03%. Turning to `CN(C(=O)Cc1ccccc1)C1CC[C@@]2(CCCO2)C[C@@H]1N1CCCC1` (stereo partly drawn), the inhibition was inactive: 4.62%. Next, `Nc1cccc2ccc([As](=O)(O)O)cc12`: inactive: -19.5%.

As a reminder, the inhibition is the change of the read-out against control, counted positive when it falls.
